According to patent US20050260730A1, “CDK2/cyclin A crystals and uses thereof” (priority 2003, published 2005):

Columns and labels:
cyclin A (human) = cyclin A (human) (UniProt P20248); experiment: competitive cyclin A binding assay
[1] = molecular target: CDK2/cyclin A complex (human) (UniProt P24941); experiment: cell-based or functional assay

Substance	IC50 (cyclin A (human))	CDK2/cyclin A kinase activity IC50 [1]
H-Cit-Cit-Leu-Ala-(p-F-Phe)-NH2 (peptide)	79 µM	–
H-Cit-Cit-Leu-Ile-(p-F-Phe)-NH2 (peptide)	–	37 µM
